# Measured values as given in patent US20250282834A1, “PEPTIDE INHIBITORS FOR CHROMODOMAIN HELICASE DNA BINDING PROTEIN 4 (CHD4)” (THE REGENTS OF THE UNIVERSITY OF CALIFORNIA, priority 2022, published 2025).
# The chains behind the UniProt entries cited, without tags or fusion partners. Where a name states a change or a piece, a line headed by the entry shows the natural chain unless it says otherwise.
# UniProt Q14839: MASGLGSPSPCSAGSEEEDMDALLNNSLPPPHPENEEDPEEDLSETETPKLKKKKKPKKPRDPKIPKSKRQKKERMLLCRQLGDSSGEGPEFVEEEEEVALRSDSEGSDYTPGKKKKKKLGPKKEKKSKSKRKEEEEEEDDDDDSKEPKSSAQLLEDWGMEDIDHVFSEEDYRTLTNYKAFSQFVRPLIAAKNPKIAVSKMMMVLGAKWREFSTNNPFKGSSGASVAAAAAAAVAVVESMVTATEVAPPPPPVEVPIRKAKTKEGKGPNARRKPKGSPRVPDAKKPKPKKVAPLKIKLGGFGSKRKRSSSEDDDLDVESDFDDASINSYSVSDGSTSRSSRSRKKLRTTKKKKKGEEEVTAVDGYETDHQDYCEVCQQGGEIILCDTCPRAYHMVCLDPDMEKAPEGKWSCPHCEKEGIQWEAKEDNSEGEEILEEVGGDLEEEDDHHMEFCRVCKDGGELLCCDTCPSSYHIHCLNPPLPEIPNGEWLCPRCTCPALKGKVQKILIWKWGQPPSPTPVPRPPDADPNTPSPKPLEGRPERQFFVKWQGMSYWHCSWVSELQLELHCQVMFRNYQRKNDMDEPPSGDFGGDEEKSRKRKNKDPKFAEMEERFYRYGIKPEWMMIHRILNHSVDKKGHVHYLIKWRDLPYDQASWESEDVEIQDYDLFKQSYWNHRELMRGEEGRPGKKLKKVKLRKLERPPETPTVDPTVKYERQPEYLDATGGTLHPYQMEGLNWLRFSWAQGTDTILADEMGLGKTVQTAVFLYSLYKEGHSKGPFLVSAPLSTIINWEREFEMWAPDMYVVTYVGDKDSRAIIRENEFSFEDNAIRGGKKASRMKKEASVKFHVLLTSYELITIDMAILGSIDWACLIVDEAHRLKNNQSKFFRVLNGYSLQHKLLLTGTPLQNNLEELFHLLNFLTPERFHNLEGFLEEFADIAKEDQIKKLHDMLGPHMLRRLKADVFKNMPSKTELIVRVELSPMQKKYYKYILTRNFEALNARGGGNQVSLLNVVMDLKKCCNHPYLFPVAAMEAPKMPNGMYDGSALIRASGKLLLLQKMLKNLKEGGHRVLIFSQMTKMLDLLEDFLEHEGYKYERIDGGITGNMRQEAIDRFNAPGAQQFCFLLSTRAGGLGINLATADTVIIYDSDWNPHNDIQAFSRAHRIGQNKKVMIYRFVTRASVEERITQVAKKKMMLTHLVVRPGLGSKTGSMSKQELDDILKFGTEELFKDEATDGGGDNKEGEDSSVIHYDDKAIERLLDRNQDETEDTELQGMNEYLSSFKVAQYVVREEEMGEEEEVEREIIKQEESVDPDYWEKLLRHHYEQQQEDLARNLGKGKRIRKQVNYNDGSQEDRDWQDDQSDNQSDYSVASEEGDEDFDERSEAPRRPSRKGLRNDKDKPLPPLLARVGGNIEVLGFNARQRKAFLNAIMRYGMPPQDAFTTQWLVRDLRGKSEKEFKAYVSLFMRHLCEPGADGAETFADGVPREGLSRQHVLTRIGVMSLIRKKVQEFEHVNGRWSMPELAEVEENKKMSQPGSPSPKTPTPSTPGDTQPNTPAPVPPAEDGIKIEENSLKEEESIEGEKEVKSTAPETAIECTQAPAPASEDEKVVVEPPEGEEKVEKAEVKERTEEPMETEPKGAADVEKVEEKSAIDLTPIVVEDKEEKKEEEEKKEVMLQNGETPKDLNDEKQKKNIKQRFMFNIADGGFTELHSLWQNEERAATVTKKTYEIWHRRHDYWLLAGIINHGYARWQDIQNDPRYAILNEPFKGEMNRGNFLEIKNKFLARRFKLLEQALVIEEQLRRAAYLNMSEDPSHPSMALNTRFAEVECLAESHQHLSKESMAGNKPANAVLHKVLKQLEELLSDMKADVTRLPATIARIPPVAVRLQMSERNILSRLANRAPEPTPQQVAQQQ
# Target: T1, full-length Flag-CHD4 (Homo sapiens, UniProt Q14839)
# T1 construct: made in house; host or cells: Sf9 (recombinant baculovirus)
# Assay: Biolayer interferometry (BLI) binding kinetics of peptides to CHD4
# Settings: N-biotinylated peptides immobilized, sequentially diluted full-length Flag-CHD4
# Procedure: We next examined peptide binding sites on the CHD4 domain and measured affinity to further confirm the interaction. Multiple CHD4 deletion proteins were expressed and purified from recombinant baculovirus-infected Sf9 cells with Flag-agarose beads (FIG. 7a). An equal molecular amount of recombinant proteins was coated on an ELISA plate and increasing concentrations of biotinylated peptides were incubated. […] Binding affinity to the fill-length CHD4 was also calculated with Bio-Layer Interferometry (BLI). […] The N-biotinylated VGN73 or control peptides were first immobilized on a streptavidin-coated chip, and sequentially diluted full-length Flag-CHD4 proteins were applied. The interaction was then detected with interferometry.
# To evaluate of binding kinetics of VGN73 and mutant peptide to CHD4, assays were carried out by biolayer interferometry (BLI) on Octet-Red 384 (ForteBio, CA, USA) at 30° C. with shaking at 1,000 RPM. Streptavidin (SA) tips (Sartorius, Goettingen, Germany) were dipped in 200 μL of biotinylated peptide (VGN73, mutant or TAT) solution (1 μM in 1× kinetic buffer) for the loading step. […] Binding kinetics was evaluated using a 1:1 binding model by ForteBio Data Analysis 8.1 software to obtain the dissociation constant KD.
smiles,measurement,value
"CC[C@H](C)[C@H](NC(=O)[C@@H](NC(=O)[C@H](C)NC(=O)[C@H](Cc1c[nH]cn1)NC(=O)[C@H](CCCCN)NC(=O)[C@H](Cc1c[nH]c2ccccc12)NC(=O)CCNC(=O)[C@H](CCCNC(=N)N)NC(=O)[C@H](CCCNC(=N)N)NC(=O)[C@H](CCCNC(=N)N)NC(=O)[C@H](CCCN)NC(=O)[C@H](CCCNC(=N)N)NC(=O)[C@H](CCCNC(=N)N)NC(=O)[C@H](CCCCN)NC(=O)[C@H](CCCCN)NC(=O)[C@H](N)CCCNC(=N)N)C(C)C)C(=O)N[C@@H](Cc1ccccc1)C(=O)N[C@@H](Cc1c[nH]c2ccccc12)C(=O)NCC(=O)N[C@@H](CC(N)=O)C(=O)N[C@@H](CC(=O)O)C(=O)N1CCC[C@H]1C(=O)N[C@@H](Cc1ccc(O)cc1)C(=O)NCC(=O)N[C@@H](CC(C)C)C(=O)N[C@@H](CCCCN)C(=O)N[C@@H](CCCCN)C(=O)O [VGN73, (d-Arg}KKRR{ORN}RRR{β-Ala}WKHAVIFWGNDPYGLKK]",binding to CHD4 by BLI,binds to CHD4
